# Source: patent US9345703B2, “Kappa opioid receptor effectors and uses thereof” (University of Kansas, priority 2011, dated 2016)
# Protein sequences, listed by entry. Tags and fused reporters are not part of them. Lines headed by an entry give the natural chain unless they say otherwise; changes in a name come on top.
# UniProt P41145: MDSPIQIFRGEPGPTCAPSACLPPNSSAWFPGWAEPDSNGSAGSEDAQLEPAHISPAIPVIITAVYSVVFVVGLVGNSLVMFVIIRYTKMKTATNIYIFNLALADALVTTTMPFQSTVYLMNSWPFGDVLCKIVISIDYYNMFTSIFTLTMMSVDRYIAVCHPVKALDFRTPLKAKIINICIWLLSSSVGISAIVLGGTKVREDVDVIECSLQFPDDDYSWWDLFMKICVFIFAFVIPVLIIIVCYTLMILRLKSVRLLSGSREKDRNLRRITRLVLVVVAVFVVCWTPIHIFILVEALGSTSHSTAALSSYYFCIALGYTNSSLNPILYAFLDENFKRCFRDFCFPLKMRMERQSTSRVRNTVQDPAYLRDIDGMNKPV
# How the values were obtained:
# KOR [1] = biological target: T1, KOR (Homo sapiens, UniProt P41145); experiment: KOR1 DISCOVERX β-Arrestin […] assay, antagonist mode (KOR DRX); type: cell-based; details: estimate; read-out: IC50 inhibition of KOR response to dynorphin A (DISCOVERX)
# Source text: (§1) In this campaign, two assay platforms were employed to evaluate KOR activity and selectivity: the KOR1 DISCOVERX β-Arrestin […] assay and an imaging based β-arrestin translocation assay for confirmatory and selectivity assays. The KOR1 DISCOVERX β-Arrestin […] assay is a commercial platform for direct measurement of GPCR (G protein-coupled receptor) activation by detection of β-Arrestin binding to the KOR. […] In cells that stably express these fusion proteins, ligand stimulation results in the recruitment of β-Arrestin by the GPCR. This interaction encourages the complementation of the two β-galactosidase fragments resulting in the formation of a functional enzyme that converts substrate in the assay medium to a detectable signal. […]
# (§2) Initially, a portion (approximately 290,000 compounds) of the MLSMR compound collection was tested in the KOR1 DISCOVERX β-arrestin primary kappa opioid (KOP) agonist and antagonist screens (PUBCHEM AID 1777 and 1778, respectively) at a single concentration point (10 μM). […] The KOR:DOR:MOR selectivity of the compounds was determined using the analogous β-arrestin translocation assays for the DOR (PUBCHEM AID 2370 and 2357, for agonists and antagonist, respectively) and the MOR (PUBCHEM AID 2352 and 2420, for agonists and antagonists, respectively).
# KOR [2] = biological target: T1, KOR; experiment: High content imaging β-arrestin translocation assay, KOR antagonist (KOR HCS); type: cell-based
# Source text: as §1, §2
# KOP receptor [3] = biological target: T2, KOP receptor (Homo sapiens, UniProt P41145); experiment: 35S-GTPγS coupling, inhibition; type: biochemical
# KOP receptor [4] = biological target: T2, KOP receptor; experiment: ERK 1/2 activation, inhibition; type: cell-based
# physchem = details: 23 °C, pH 7.4, aqueous buffer
# Procedure: In addition to profiling the selectivity of this class of KOR ligands, basic pharmacological properties were assessed.
# KOR [5] = biological target: T1, KOR; experiment: PDSP radioligand binding assay; details: Table 5
# Procedure: The compound was initially screened in radioligand binding assays at a constant concentration (10 μM) to identify possible activity of the compound. Results showing significant activity in the initial screen were selected for Ki determinations.
# As a representative of the Chemotype II series, the MLPCN probe molecule 2{8} was subjected to a binding assay panel of 44 GPCR and other molecular targets by the Pyschoactive Drug Screening Program (PDSP) (Table 10). The compound was initially screened in a radioligand binding assay at a constant concentration (10 μM) to identify possible activity of the compound. Results showing significant activity in the initial screen were selected for Ki determinations.
smiles,measurement,setting,value
"COc1ccc(N2CCN(CCCNC(=O)Cn3c(=O)c4cccn4c4c(C)ccnc43)CC2)cc1 [Compound 1{3}, N-(3-(4-(4-Methoxyphenyl)piperazin-1-yl)propyl)-2-(1-methyl-6-oxopyrido[2,3-e]pyrrolo[1,2-a]pyrazin-5(6H)-yl)acetamide]",IC50,KOR [1],120 nM
same,IC50,"KOR [2]; antagonist, average, read-out: Potency, Target KOR HCS",3 nM
same,selectivity for the KOR over both the DOR and MOR,KOR [2]; β-arrestin translocation assays,"over 10,000 fold"
same,IC50,KOP receptor [3],434 ± 154 nM
same,IC50,KOP receptor [4],330 ± 29.4 nM
same,solubility,physchem,12.9 µg/mL
same,Ki,KOR [5],129 nM
